In PMC5995905, “Confirmation of high-throughput screening data and novel mechanistic insights into VDR-xenobiotic interactions by orthogonal assays” (Scientific Reports, 2018):

Molecular target: T1, human VDR (Homo sapiens, UniProt P11473)
T1 sequence (P11473 1-427): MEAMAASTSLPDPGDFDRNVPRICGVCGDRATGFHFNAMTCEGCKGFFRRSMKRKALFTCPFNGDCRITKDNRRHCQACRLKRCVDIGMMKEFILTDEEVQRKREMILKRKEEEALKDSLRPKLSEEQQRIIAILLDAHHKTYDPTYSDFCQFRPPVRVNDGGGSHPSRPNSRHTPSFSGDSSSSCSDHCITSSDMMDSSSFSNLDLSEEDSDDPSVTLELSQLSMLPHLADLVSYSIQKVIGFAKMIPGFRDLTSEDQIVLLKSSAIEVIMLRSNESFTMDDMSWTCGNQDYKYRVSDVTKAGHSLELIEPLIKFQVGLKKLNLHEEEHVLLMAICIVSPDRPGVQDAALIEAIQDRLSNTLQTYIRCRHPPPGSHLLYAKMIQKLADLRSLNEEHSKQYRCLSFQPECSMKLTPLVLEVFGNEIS
Test: Transient transactivation assay (CYP24-Luc), agonist mode, HEK293T cells
Conditions: top asymptote of Hill or Gain-Loss model, maximum response

For `C=C1CC[C@H](O)C/C1=C/C=C1\CCC[C@]2(C)[C@@H]([C@H](C)/C=C/[C@H](C)C(C)C)CC[C@@H]12` [Ergocalciferol, reference compound], the “Derived Efficacy (fold induction)” value was 82.6111 fold induction.
